These are literature values, as cited in publication PMC7406630, “A new ^68Ga-labeled somatostatin analog containing two iodo-amino acids for dual somatostatin receptor subtype 2 and 5 targeting” (EJNMMI Research, 2020).

The data set concerns SST2. To be noted: read-out: IC50 for SST2; cited from earlier work.

Turning to `CC(C)[C@@H]1NC(=O)[C@H](CCCCN)NC(=O)[C@@H](Cc2c[nH]c3ccccc23)NC(=O)[C@H](Cc2ccc(O)c(I)c2)NC(=O)[C@@H](NC(=O)[C@H](N)Cc2ccc(N)c(I)c2)CSSC[C@@H](C(=O)N[C@H](C(N)=O)[C@@H](C)O)NC1=O`, the half-maximal inhibitory concentration (IC50) was 0.6 nM.
